Source: patent publication US12702715B2, “Targeted RNA degradation allows precision repurposing of protein-targeted small molecule medicines to RNA” (University of Florida Research Foundation, Incorporated, priority 2020, dated 2026)

What was measured:
[1] = test system: RTK / phosphorylation of ERK (pERK); assay: Western blot of ERK phosphorylation (functional RTK inhibition) in MDA-MB-231 cells; format: cell-based, human
Experimental: Western Blotting. MDA-MB-231 cells were plated in 6-well plates. […] After 48 h, the medium was removed, and the cells were washed with 1×DPBS. The cells were harvested by trypsinization, and total protein was extracted with MPER (Mammalian Protein Extraction Reagent, Thermo Scientific) as previously described^6. Protein concentrations were determined by using a Pierce Micro BCA Protein Assay kit (Fisher Scientific). […] The membrane was washed with 1×TBST for 10 min three times and then incubated with 1:2000 anti-rabbit IgG horseradish-peroxidase secondary antibody conjugate (Cell Signaling Technology, 7074S) in 1× TBST containing 5% (w/v) milk for about 2 h. […] After imaging, the membrane was stripped with 1× Stripping Buffer (200 mM glycine with 0.1% SDS, pH 2.2) for 120 min at RT, and β-actin level was detected as described for PDCD4 except using β-actin (Cell Signaling Technology, 3700S) primary antibody (1:5000 dilution). ImageJ software was used for quantification of the protein bands. […] In each case, the secondary antibody was diluted two times more than the primary antibody.

[2] = test system: miR-21; assay: RT-qPCR of mature miR-21 levels in MDA-MB-231 cells; format: cell-based, human
Experimental: Cell Culture. Cells were cultured at 37° C. and 5% CO2. MDA-MB-231 cells (HTB-26, ATCC) were cultured in RMPI 1640 medium with L-glutamine & 25 mM HEPES supplemented with 1× Antibiotic/Antimycotic solution (Corning) and 10% FBS. MCF-10A cells (CRL-10317, ATCC) were cultured in 1×DMEM/F12 50/50 with L-glutamine & 15 mM HEPES (Corning) supplemented with 20% FBS, 1× Antibiotic/Antimycotic solution, 20 ng/mL human epidermal growth factor (Pepro Tech, Inc.), 10 μg/mL insulin (Sigma-Aldrich), and […] hydrocortisone (Pfaltz & Bauer). For compound treatment, compound stocks either in DMSO or water were diluted in growth medium and added to cells for the indicated time. Plasmid DNA to overexpress pre-miR-21 in pcDNA 3.1 (Addgene 21114) or a plasmid DNA encoding the pre-miR-21 mutant (custom purchased from GenScript USA, Inc.) was transfected with jetPRIME per the manufacturer's protocol. After transfection, the medium was replaced with growth medium containing the compound of interest, prepared as described above. The RNase L-targeting siRNA or a control siRNA was transfected with Lipofectamine RNAiMAX reagent (Invitrogen) per the manufacturer's protocol.
RNA Isolation and Quantitative Real-Time PCR (RT-qPCR). After treatment, total RNA was extracted and purified by using the Zymo Quick-RNA mini prep kit per the manufacturer's protocol. […]

`CN1CCN(c2ccc3nc(-c4c(N)c5c(F)cccc5[nH]c4=O)[nH]c3c2)CC1` [Compound 1, Dovitinib, reference compound] was tested, and the “concentration affecting the canonical protein target” value [1] was 100 nM and the “concentration affecting the repurposed RNA target” value [2] was 5 µM.
